According to PMC5037430 (Scientific Reports, 2016):

Molecular target: T1, glycolate oxidase (GO); hydroxyacid oxidase 1 (HAO1) (Homo sapiens, UniProt Q9UJM8)
T1 sequence (Q9UJM8 1-370): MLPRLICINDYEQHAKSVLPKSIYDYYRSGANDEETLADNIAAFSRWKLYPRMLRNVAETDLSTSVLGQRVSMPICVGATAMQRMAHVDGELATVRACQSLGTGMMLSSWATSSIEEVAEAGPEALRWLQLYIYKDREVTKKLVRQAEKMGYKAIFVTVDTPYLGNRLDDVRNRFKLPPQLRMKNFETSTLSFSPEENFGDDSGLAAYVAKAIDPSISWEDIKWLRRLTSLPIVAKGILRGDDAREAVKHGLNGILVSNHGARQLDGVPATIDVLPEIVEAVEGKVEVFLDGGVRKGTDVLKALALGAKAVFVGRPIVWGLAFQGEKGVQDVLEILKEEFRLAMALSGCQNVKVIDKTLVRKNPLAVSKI

Molecule `[O]=[Cr](=[O])([OH])[O][Cr](=[O])(=[O])[OH]` [Potassium dichromate] has an IC50 of 96.6 nM.
